According to ChEMBL document CHEMBL1138783, “Subtype selective substrates for histone deacetylases” (J Med Chem, 2004):

Tested on: HDAC6/HDAC1 (Homo sapiens)
Assay: Selectivity ratio for Histone deacetylase 6 versus Histone deacetylase 1

| Structure (SMILES) | Selectivity |
| --- | --- |
| CN(C)c1ccc(C(=O)NCCCCCCC(=O)NO)cc1 | 0.35 |
| CC1(C)NC(=O)[C@H](CCCCCC(=O)NO)NC(=O)[C@H]2CCCN2C(=O)[C@H](Cc2ccccc2)NC1=O | 86 |
